Test results: patent US20240083996A1, “COMPOSITION FOR PROPHYLAXIS OR TREATMENT OF IL-8 RELATED DISEASES” (Chugai Seiyaku Kabushiki Kaisha, priority 2016, published 2024)

Protein sequences, listed by entry. Tags and fused reporters are not part of them. Residues count along the entry.
UniProt P10145, 23-99 limits assumed: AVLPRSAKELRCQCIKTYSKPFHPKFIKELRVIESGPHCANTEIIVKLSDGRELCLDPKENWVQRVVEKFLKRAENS

Columns and labels:
[1] = system: PathHunter CHO-K1 CXCR2 β-Arrestin cell line (human IL-8-mediated signals); assay: Stability of human IL-8-neutralizing activity in mouse plasma (human IL-8 inhibition assay using human CXCR2-expressing cells); assay type: cell-based; conditions: antibody 0.2 mg/mL in mouse plasma, 40° C., one and two weeks; human IL-8 2 nM (FIGS. 18-1 to 18-3)
Procedure: Mouse plasma was collected from the blood of C57BL/6J (Charles River) by a method known to those skilled in the art. 200 μL of 200 mM PBS (Sigma, P4417) was added to 800 μL of mouse plasma to give 1 mL. Furthermore, sodium azide was added at a final concentration of 0.1% as an antiseptic. […] At this point, a portion of the sample was collected as the initial sample. The remaining sample was stored at 40° C. One week and two weeks after storage, a portion of each sample was collected, and they were used as the one-week-stored sample and the two-week-stored sample. All samples were frozen at −80° C. and stored until each analysis was performed.
Next, anti-IL-8 antibodies contained in mouse plasma were evaluated for their human IL-8-neutralizing activity as follows: CXCR1 and CXCR2 are known receptors for human IL-8. The PathHunter(registered trademark) CHO-K1 CXCR2 β-Arrestin cell line (DiscoveRx Co., Cat. #93-0202C2) expresses human CXCR2, and is a cell line artificially produced so as to emit chemiluminescence when human IL-8-mediated signals are transmitted. […]
Then, the above-mentioned cell line was used to examine whether the neutralizing activity of an antibody stored in mouse plasma was maintained. […] Next, a detection reagent was added according to the protocol of the product, and the relative chemiluminescence level was detected using a chemiluminescence detector. […]

human IL-8 = human IL-8 (Homo sapiens, UniProt P10145); assay: Mouse PK assay: human IL-8 elimination after simultaneous administration of human IL-8 and anti-human IL-8 antibody; assay type: in vivo, mice (C57BL/6J); conditions: mice
Procedure: After simultaneous administration of human IL-8 and anti-human IL-8 antibodies to mice (C57BL/6J, Charles river), pharmacokinetics of human IL-8 were evaluated. A mixed solution of human IL-8 and an anti-human IL-8 antibody (10 μg/mL and 200 μg/mL, respectively) was administered in a single dose at 10 mL/kg to the tail vein. […] Blood was collected five minutes, two hours, four hours, seven hours, one day, two days, three days, seven days, 14 days, 21 days, and 28 days after the administration. The collected blood was immediately centrifuged at 15,000 rpm and 4° C. for 15 minutes to obtain plasma. The separated plasma was stored in a freezer set at −20° C. or below until measurements were taken.
The human IL-8 concentration in mouse plasma was determined by an electrochemiluminescence method. First, an anti-human IL-8 antibody (prepared in-house) having a mouse IgG constant region was dispensed into a MULTI-ARRAY 96-well Plate (Meso Scale Discovery), and was allowed to stand at room temperature for one hour. Then, a PBS-Tween solution containing 5% BSA (w/v) was used for blocking at room temperature for two hours to prepare an anti-human IL-8 antibody-immobilized plate. […] The human IL-8 concentration was calculated based on the response in the calibration curve using the analytical software, SOFT Max PRO (Molecular Devices). […]

Molecule	human IL-8-neutralizing activity before and after storage in mouse plasma [1]	slowing of the rate of human IL-8 elimination, 8 mg/kg group compared to 2 mg/kg group (human IL-8)	rate of human IL-8 elimination (CL) as compared to H998/L63 (human IL-8; antibody 2 mg/kg with human IL-8)
H89/L118: pH-dependent IL-8-binding antibody, H89-IgG1 heavy chain, L118-kOMT (SEQ ID NO:44) light chain (antibody) heavy: QVQLVESGGGLVQPGGSLRLSCAASGFTFSDYYLSWVRQAPGKGLEWVGLIRNKANGYTREYSASVKGRFTISRDDSKNSLYLQMSSLKTEDTAVYYCARENHRYDVELAYWGQGTLVTVSSASTKGPSVFPLAPSSKSTSGGTAALGCLVKDYFPEPVTVSWNSGALTSGVHTFPAVLQSSGLYSLSSVVTVPSSSLGTQTYICNVNHKPSNTKVDKKV[human IgG1 Fc skipped] light: DIQMTQSPSSLSASVGDRVTITCRASEIIYSYLAWYQQKPGKAPKLLIYHAKTHADGVPSRFSGSGSGTDFTFTISSLQPEDIATYYCKHHFGFPRTFGQGTKVEIKRTVAAPSVFIFPPSDEQLKSGTASVVCLLNNFYPREAKVQWKVDNALQSGNSQESVTEQDSKDSTYSLSSTLTLSKADYEKHKVYACEVTHQGLSSPVTKSFNRGEC	differences in the human IL-8-neutralizing activity before and after storage in mouse plasma were not observed	approximately 2 fold	about 19 fold
Hr9: humanized anti-human IL-8 antibody, Hr9-IgG1 (SEQ ID NO:41) heavy chain, hWS4L-kOMT light chain (antibody) heavy: QVQLVESGGGLVQPGGSLRLSCAASGFTFSDYYLSWVRQAPGKGLEWVGLIRNKANGYTREYSASVKGRFTISRDDSKNSLYLQMSSLKTEDTAVYYCARENYRYDVELAYWGQGTLVTVSSASTKGPSVFPLAPSSKSTSGGTAALGCLVKDYFPEPVTVSWNSGALTSGVHTFPAVLQSSGLYSLSSVVTVPSSSLGTQTYICNVNHKPSNTKVDKKV[human IgG1 Fc skipped] light: DIQMTQSPSSLSASVGDRVTITCRASEIIYSYLAWYQQKPGKAPKLLIYNAKTLADGVPSRFSGSGSGTDFTFTISSLQPEDIATYYCQHHFGFPRTFGQGTKVEIKRTVAAPSVFIFPPSDEQLKSGTASVVCLLNNFYPREAKVQWKVDNALQSGNSQESVTEQDSKDSTYSLSSTLTLSKADYEKHKVYACEVTHQGLSSPVTKSFNRGEC	differences in the human IL-8-neutralizing activity before and after storage in mouse plasma were not observed		
